From patent US9447134B2 (priority 2012, dated 2016)
Read-outs that look alike come from different tables or passages of the source.

Protein sequences, listed by entry. Tags and fused reporters are not part of them. Lines headed by an entry give the natural chain unless they say otherwise; changes in a name come on top.
UniProt Q8T6T2: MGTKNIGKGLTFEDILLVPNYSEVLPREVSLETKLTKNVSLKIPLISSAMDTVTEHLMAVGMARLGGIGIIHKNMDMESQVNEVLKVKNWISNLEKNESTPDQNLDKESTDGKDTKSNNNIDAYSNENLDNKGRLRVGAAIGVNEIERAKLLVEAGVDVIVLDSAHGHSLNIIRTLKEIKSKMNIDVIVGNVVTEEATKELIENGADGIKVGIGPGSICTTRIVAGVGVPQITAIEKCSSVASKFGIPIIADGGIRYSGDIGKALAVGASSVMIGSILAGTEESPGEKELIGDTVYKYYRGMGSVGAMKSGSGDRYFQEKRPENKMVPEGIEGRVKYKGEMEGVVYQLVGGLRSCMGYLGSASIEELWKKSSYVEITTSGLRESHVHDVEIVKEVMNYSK

How the values were obtained:
[1] = target: T1, C. parvum/C. hominis IMPDH (CpIMPDH), recombinant, purified from E. coli (Cryptosporidium parvum, UniProt Q8T6T2); experiment: biochemical
[2] = target: T1, C. parvum/C. hominis IMPDH (CpIMPDH), recombinant, purified from E. coli; conditions: read-out: CpIMPDH IC50 (+) BSA

Row | Compound | IC50 [1] | IC50 [2] | IC50 ([1]; CpIMPDH IC50 (-) BSA) | IC50 ([1]; […])
1 | CC(Oc1ccc(Cl)cc1Cl)C(=O)Nc1ccc2oc(-c3ccccn3)nc2c1 (centres unmarked) [Compound Q22] | 183 nM |  |  | 
2 | CC(Nc1cccc(Cl)c1Cl)C(=O)Nc1ccc2oc(-c3ccncc3)nc2c1 (centres unmarked) [Compound Q60, 2-(2,3-dichlorophenylamino)-N-(2-(pyridine-4-yl)benzo[d]oxazol-5-yl)propanamide] | 1.9 ± 1.13 nM | 1.8 ± 0.52 nM |  | 
3 | CC(C)C(Oc1cccc2ccccc12)C(=O)Nc1ccc2oc(-c3ccncc3)nc2c1 (centres unmarked) [Compound Q54, 3-methyl-2-(naphthalene-1-yloxy)-N-(2-(pyridine-4-yl)benzo[d]oxazol-5-yl) butanamide] | 21 nM |  |  | 
4 | CC(=NO)c1cccc(C(C)(C)NC(=O)Nc2ccc(Cl)c([N+](=O)[O-])c2)c1 [Compound P-96] | 1.3 nM |  |  | 
5 | C[C@H](Nc1cccc2ccccc12)C(=O)Nc1ccc2oc(-c3ccncc3)nc2c1 [Compound Q74, (S)-2-(naphthalen-1-ylamino)-N-(2-(pyridin-4-yl)benzo[d]oxazol-5-yl)propanamide] | 14.6 ± 6.3 nM | 15 ± 3.6 nM |  | 
6 | CC(Oc1cccc(C(F)(F)F)c1Cl)C(=O)Nc1ccc2oc(-c3ccncc3)nc2c1 (centres unmarked) [Compound Q53] | 12 nM |  |  | 
7 | CC(Oc1cccc([N+](=O)[O-])c1Cl)C(=O)Nc1ccc2oc(-c3ccncc3)nc2c1 (centres unmarked) [Compound Q52] | 2.6 nM |  |  | 
8 | C[C@H](Nc1cccc(Cl)c1Cl)C(=O)Nc1ccc2oc(-c3ccncc3)nc2c1 [Compound Q67, (S)-2-(2,3-dichlorophenylamino)-N-(2-(pyridine-4-yl)benzo[d]oxazol-5-yl)propanamide] |  | 1.1 ± 0.05 nM | 0.53 ± 0.19 nM | 2.6 nM
9 | CC(NC(=O)c1ccc2oc(-c3ccncc3)nc2c1)c1ccccc1 (centres unmarked) [Compound Q63] |  |  |  | 200000 nM
10 | COc1cc(NC(=O)Cc2nn(C)c(=O)c3ccccc23)ccc1Cl [Compound D69] | 31 nM |  |  | 
